Experimental data: patent publication US5196424A, “N-[2-amino-4-substituted[[(pyrrollo or pyrido)[2,3-d]pyrimidinyl]-alkyl]benzoyl]-L-glutamic acids” (priority 1992, dated 1993)

Target: T1, human dihydrofolate reductase (DHFR) (Homo sapiens, UniProt P00374)
T1 construct: was obtained from human leukemic lymphoblasts (WI-L2/M4 cells); endogenous in cells; host or cells: WI-L2/M4 human leukemic lymphoblasts; enzyme purified from the cells according to Delcamp et al., Biochemistry 22, 633-639 (1983)
T1 sequence (P00374 1-187): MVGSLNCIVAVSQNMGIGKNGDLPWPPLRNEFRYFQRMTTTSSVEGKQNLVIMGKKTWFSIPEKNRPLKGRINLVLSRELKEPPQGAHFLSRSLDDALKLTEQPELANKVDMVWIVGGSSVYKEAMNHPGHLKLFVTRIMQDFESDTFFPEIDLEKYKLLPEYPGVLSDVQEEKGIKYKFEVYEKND
Test: Inhibition of isolated human dihydrofolate reductase (Table III)
Assay type: biochemical

Compound: Nc1ncc2c(n1)NCC(CCc1ccc(C(=O)N[C@@H](CCC(=O)O)C(=O)O)cc1)C2 (stereo partly drawn) [Example 7, N-[2-amino-[[tetrahydropyrido[2,3-d]-pyrimidin-6-yl]-ethyl]benzoyl]-L-glutamic acid]
- IC50: 64 nM
